One experiment concerns the target T1, α-chymotrypsin (Bos taurus, UniProt P00766).
T1 construct: purchased Sigma (St. Louis, Mo.); host or cells: bovine pancreas
It counts as biochemical, bovine. The procedure: (§1) The substrates for α-chymotrypsin (succinyl-ala-ala-pro-phe-p-nitroanilide) and β-trypsin (N-benzoyl-L-arginine ethyl ester, BAEE) were also purchased from Sigma. The elastase substrate used (elastase substrate 1, MeOSuc-Ala-Ala-Pro-Val-pNA) was purchased from Calbiochem (San Diego, Calif.). Substrates were diluted from 10 mM DMSO stock solutions, and all reactions were performed in 50 mM TRIS buffer, pH 7.0, 25° C. For α-chymotrypsin, 200 μM of substrate was used; the reactions were initiated by addition of 10 μL of a 0.1 mg/ml enzyme stock solution and monitored at 410 nm. For β-trypsin, 200 μM of BAEE was used, the reactions were initiated by the addition of 5 μL of a 0.2 mg/ml enzyme stock solution, and monitored at 260 nm. For elastase, 640 μM of elastase substrate was used, the reactions were initiated by the addition of 30 μL of a 0.2 mg/mL enzyme stock solution, and monitored at 385 nm. Initial rate fits to the absorbance data for the first 150 seconds of each reaction were used to determine reaction velocities.

Amino acid sequences for entries named in this document (tags omitted). Residues count along the entry.
UniProt P00760, 24-246: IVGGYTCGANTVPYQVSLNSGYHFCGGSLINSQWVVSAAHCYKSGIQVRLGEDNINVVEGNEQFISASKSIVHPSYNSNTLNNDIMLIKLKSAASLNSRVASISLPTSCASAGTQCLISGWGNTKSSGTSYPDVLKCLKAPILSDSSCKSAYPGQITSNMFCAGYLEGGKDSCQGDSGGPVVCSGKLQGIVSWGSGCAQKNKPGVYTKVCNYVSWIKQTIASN
UniProt P00772, 27-266: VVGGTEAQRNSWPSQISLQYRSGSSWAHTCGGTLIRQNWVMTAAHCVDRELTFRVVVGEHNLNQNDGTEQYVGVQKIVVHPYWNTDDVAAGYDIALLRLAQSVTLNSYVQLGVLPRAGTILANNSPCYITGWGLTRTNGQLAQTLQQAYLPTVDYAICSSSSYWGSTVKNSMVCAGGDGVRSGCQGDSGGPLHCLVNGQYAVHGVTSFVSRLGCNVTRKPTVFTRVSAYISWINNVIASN

Another experiment has as its target T2, β-trypsin (Bos taurus, UniProt P00760).
T2 construct: β-trypsin (bovine pancreatic); purchased Sigma (St. Louis, Mo.); host or cells: bovine pancreas
It counts as biochemical, bovine. The procedure:
as §1

The target of a further experiment is T3, elastase (Sus scrofa, UniProt P00772).
T3 construct: purchased Sigma (St. Louis, Mo.); host or cells: porcine pancreas
In words: elastase selectivity counter-screen. It counts as biochemical, porcine. The procedure:
as §1

Structures are written as SMILES. “Also recorded” adds a separate entry of the source.

As to `O=C(O)c1sccc1S(=O)(=O)Nc1ccc(Cl)cc1` [Compound 1, 3-[(4-chloroanilino)sulfonyl]thiophene-2-carboxylic acid], the “selectivity for AmpC over chymotrypsin” value at α-chymotrypsin is “at least sixty-fold; also recorded: greater than fifty-fold”. Besides, the “selectivity for AmpC over trypsin” value on β-trypsin is on record as “at least two hundred-fold”. Moreover, at elastase, the “selectivity for AmpC over elastase” value is listed as “at least two hundred-fold”.
